Measurements: BindingDB's records for doi:10.1016/j.ejmech.2017.05.048 (University of Auckland, 2017)
pIC50: −log10 of the molar value.

Assay: Inhibition of perforin (unknown origin)-mediated 51Cr-labelled human Jurkat cell lysis preincubated with protein for 30 mins followed by cell addition measured after 4 hrs by gamma counting method

SMILES: COc1ccc(S(=O)(=O)Nc2cncc(-c3ccc(-c4ccc5c(c4)CN(C)C5=O)s3)c2)cc1OC
- pIC50: 4.86
